Source: patent US20240377408A1

What was measured:
Assay in all cases: cell-based or functional assay
M64-LAEIR = biological target: M64-LAEIR
M64-FAEIR = biological target: M64-FAEIR
M64-AAEIR = biological target: M64-AAEIR
M64-EAEIR = biological target: M64-EAEIR
M64-DAEIR = biological target: M64-DAEIR

IC50 values (µM), colorimetric pNPA hydrolysis inhibition assay (M64-LAEIR): 0.028 µM | IC50 values (µM), colorimetric pNPA hydrolysis inhibition assay (M64-FAEIR): 0.018 µM | IC50 values (µM), colorimetric pNPA hydrolysis inhibition assay (M64-AAEIR): 0.02 µM | IC50 values (µM), colorimetric pNPA hydrolysis inhibition assay (M64-EAEIR): 0.63 µM | IC50 values (µM), colorimetric pNPA hydrolysis inhibition assay (M64-DAEIR): 0.089 µM
Substance: Carbonic anhydrase II, Homo sapiens (scaffold) (from UniProt P00918 4-259) (enzyme)
